Results on one compound are retold here after patent US7334580B2, “Methods, devices and formulations for targeted endobronchial therapy” (priority 2003, dated 2008).

Structures are written as SMILES.

This data set can be described thus: Bench model with proximal airways tube, aerosol catheter in ET tube, continuous administration. Particulars: aerosol delivered to distal airways, cascade impactor, MEAN ± SEM. On the procedure:
The endotracheal tube 1006 (or tracheostomy tube), instead of being in the patient 10, is attached to 100 ml tube 4000, which models the proximal airways (i.e., trachea 70 and mainstream bronchi 210); the 100 ml tube 4000 is attached to the inhaled mass filter 1040. In other words (describing the arrangement moving in the direction of the patient 10), the Y piece 1003 is connected to the ET tube 1006, which is connected to the 100 ml tube 4000, which is attached to the inhaled mass filter 1040 (the filter measures aerosol that will pass out of the proximal airways and enter the distal lung).
In a first experiment, the bench model of FIG. 16B was tested with an aerosol catheter 103 (the Trudell catheter, Trudell Medical International); a standard Y-piece 1003 was used (without any nebulizer). […] The inhaled mass was measured in two parts: the proximal airways (100 ml tube 4000) and distal airways (filter 1040 distal to the 100 ml tube 4000). The Mass Median Aerodynamic Diameter (MMAD) was measured in aerosol delivered to distal airways using a cascade impactor. The test was performed with two different ventilators with the humidity feature active and off. Administration of the aerosol was continuous (not breath actuated). The data reveal that administration of aerosol in this manner is relatively insensitive to humidity.

Turning to `CC(C)(C)NCC(O)c1ccc(O)c(CO)c1` (stereo not shown) [albuterol], the MMAD runs as follows: (Drager, humidity off) 1.23 ± 0.1; (Drager, humidity on) 1.30 ± 0.2; (T-Bird, humidity off) 1.12 ± 0.2; (T-Bird, humidity on) 1.72 ± 0.2.
